Measurements taken from ChEMBL document CHEMBL1165913, “Repairing faulty genes by aminoglycosides: development of new derivatives of geneticin (G418) with enhanced suppression of diseases-causing nonsense mutations” (Bioorg Med Chem, 2010).

Test: Inhibition of ribosomal activity in Spodoptera frugiperda Sf21 cells assessed as inhibition of translation after 60 mins by fluorescence assay

Compound: CN[C@@H]1[C@@H](O)[C@@H](O[C@@H]2[C@@H](O)[C@H](O[C@H]3O[C@H]([C@@H](C)O)[C@@H](O)[C@H](O)[C@H]3N)[C@@H](N)C[C@H]2N)OC[C@]1(C)O [GENETICIN]
- IC50: 2 µM
